Assay [1] addresses T1, human FLVCR (Homo sapiens, UniProt Q9Y5Y0).
T1 construct: expressed in transfected cells; host or cells: NRK (rat kidney) cells engineered to express human FLVCR
T1 sequence (Q9Y5Y0 1-555): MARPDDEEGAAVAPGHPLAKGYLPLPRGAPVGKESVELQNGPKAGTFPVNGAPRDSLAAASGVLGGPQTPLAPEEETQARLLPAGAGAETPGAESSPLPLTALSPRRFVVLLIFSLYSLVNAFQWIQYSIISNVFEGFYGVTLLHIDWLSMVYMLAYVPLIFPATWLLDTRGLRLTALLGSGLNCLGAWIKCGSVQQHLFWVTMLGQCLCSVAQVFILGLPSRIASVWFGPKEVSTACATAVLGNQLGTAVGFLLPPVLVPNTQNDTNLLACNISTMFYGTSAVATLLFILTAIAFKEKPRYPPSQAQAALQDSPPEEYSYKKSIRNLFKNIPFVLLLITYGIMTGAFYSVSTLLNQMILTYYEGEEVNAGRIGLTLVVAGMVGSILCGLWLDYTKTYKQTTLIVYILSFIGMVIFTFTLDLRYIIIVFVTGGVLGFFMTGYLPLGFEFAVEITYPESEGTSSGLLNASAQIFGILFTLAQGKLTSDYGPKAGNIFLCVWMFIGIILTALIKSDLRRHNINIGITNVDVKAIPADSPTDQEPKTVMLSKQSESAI
Briefly: ZnMP export from NRK cells engineered to express human FLVCR, with carrier protein. Format: cell-based. Particulars: cells loaded with ZnMP 30 min, then 37° C. for 90 min. Here is the method:
ZnMP and ^55Fe-hemin uptake and washout studies. These studies were performed as described previously (S9).
FLVCR is a heme export protein that is required for proerythroblast survival (1), macrophage heme-iron recycling, and systemic iron homeostasis (2). However, the mechanism and regulation of export through this and related major facilitator superfamily (MFS) members (e.g. OxIT, LacY, GlpT) is unknown. To gain insights into the structure and function of FLVCR, we first studied the export of zinc mesoporphyrin (ZnMP), a fluorescent heme analog that traffics similarly to heme and also blocks heme oxygenase activity. NRK (rat) cells engineered to express human FLVCR were loaded with ZnMP for 30 min, then incubated at 37° C. for 90 min with no carrier protein, albumin, or hemopexin (Hpx). In the absence of carrier protein, no export was seen. […] As Kds are ˜10 nM and <1 pM, for albumin and Hpx, respectively, our data argue that the rate and efficiency of heme export depends on the avidity of heme binding. […] Based upon known MFS member structures (3), these histidines are optimally located to coordinate the heme-iron exiting the channel while the adjacent transmembrane regions contain several aromatic residues capable of lining a solvent accessible heme pocket. These histidine residues are conserved in human, cat, and mouse FLVCR, but are not present in closely related paralogs (4), which lack heme export function. We hypothesize that they act as a temporary docking site for heme after it exits through a transport channel and prior to being picked up by Hpx in the circulation, and thus as a structural regulator of export efficiency, or have another physiological function. We are currently using site-directed mutagenesis to generate mutant FLVCR and will test export function in transduced NRK cells and in vivo in mice. […]

The conditions of assay [2]: heme binding; cited from earlier work.

For albumin, the ZnMP export entry in assay [1] (1.151 μM albumin) was “almost absent”; in assay [1] (15.15 μM albumin) it was “less extensive”; in assay [1] (151.5 μM (1%) albumin) it was “near complete”. Besides, the Kd (commonly the constant that tells how readily two partners part at equilibrium) in assay [2] was ~10 nM.
